Source: patent publication EP3168211A1, “PHARMACEUTICAL CO-CRYSTALS OF NICLOSAMIDE” (Westfälische Wilhelms-Universität Münster, priority 2015, dated 2017)

What was measured:
[1] = for factor: equilibrium solubility relative to pristine NCL, 37°C, 24 h, 40% isopropanol-water
[2] = result in words

Substance	factor [1]	equilibrium solubility relative to NCL-URE co-crystal ([1]; fold versus NCL-URE co-crystal) [x]	stability of the co-crystal concerning its hygroscopic behavior [2]	stability of the co-crystal ([2]; storage)	increase of the equilibrium solubility ([1]; result in words, versus pristine NCL)
Niclosamide - 2-aminothiazole [NCL-AT]	2.8	1.4	improved	stable for many months	
Niclosamide - benzamide [NCL-BA]	1.3				moderate increase
